The values below come from ChEMBL document CHEMBL3421542, “Pure Diastereomers of a Tranylcypromine-Based LSD1 Inhibitor: Enzyme Selectivity and In-Cell Studies” (ACS Med Chem Lett, 2015).

Chains of the proteins cited; added tags and fusions are not shown.
UniProt P21397, whole entry: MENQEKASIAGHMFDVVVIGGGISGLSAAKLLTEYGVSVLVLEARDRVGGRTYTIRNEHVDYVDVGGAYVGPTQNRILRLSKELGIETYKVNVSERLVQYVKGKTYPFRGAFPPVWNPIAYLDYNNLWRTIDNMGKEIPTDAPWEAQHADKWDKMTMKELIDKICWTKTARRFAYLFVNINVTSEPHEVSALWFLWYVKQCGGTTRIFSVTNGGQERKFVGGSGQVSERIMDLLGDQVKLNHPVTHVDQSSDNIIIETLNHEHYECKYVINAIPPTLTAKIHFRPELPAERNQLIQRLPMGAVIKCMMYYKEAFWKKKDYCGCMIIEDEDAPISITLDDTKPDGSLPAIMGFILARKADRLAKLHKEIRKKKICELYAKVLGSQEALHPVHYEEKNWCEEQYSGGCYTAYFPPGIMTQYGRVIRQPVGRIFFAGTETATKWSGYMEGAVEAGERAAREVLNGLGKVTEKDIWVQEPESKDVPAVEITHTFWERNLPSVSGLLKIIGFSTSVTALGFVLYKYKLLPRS

The target of the experiment is Amine oxidase [flavin-containing] A (Homo sapiens, UniProt P21397). Description: Inhibition of human recombinant MAOA expressed in Pichia pastoris incubated for 15 mins prior to substrate addition measured after 30 mins by luminescence assay.
Regarding `N[C@H]1C[C@@H]1c1ccc(NC(=O)[C@H](Cc2ccccc2)NC(=O)OCc2ccccc2)cc1`, the concentration for half-maximal inhibition (IC50) (commonly the concentration at which inhibition is half-maximal) stood at 110 nM.

Turning to `N[C@H]1C[C@@H]1c1ccc(NC(=O)[C@@H](Cc2ccccc2)NC(=O)OCc2ccccc2)cc1`, the half-maximal inhibitory concentration (IC50) came out at 200 nM.

As to `N[C@@H]1C[C@H]1c1ccc(NC(=O)[C@H](Cc2ccccc2)NC(=O)OCc2ccccc2)cc1`, the half-inhibitory concentration (IC50) was 140 nM.

Take `N[C@@H]1C[C@H]1c1ccc(NC(=O)[C@@H](Cc2ccccc2)NC(=O)OCc2ccccc2)cc1`: the 50% inhibitory concentration (IC50) was 220 nM. For the compound `Cl.NC1CC1c1ccc(NC(=O)C(Cc2ccccc2)NC(=O)OCc2ccccc2)cc1` (mixture of isomers), the IC50 amounted to 320 nM.
